Laboratory results from US20230322721A1 (OSLO UNIVERSITETSSYKEHUS HF, priority 2020, published 2023).

The chains behind the UniProt entries cited, without tags or fusion partners. Where a name states a change or a piece, a line headed by the entry shows the natural chain unless it says otherwise.
UniProt Q9H2K2: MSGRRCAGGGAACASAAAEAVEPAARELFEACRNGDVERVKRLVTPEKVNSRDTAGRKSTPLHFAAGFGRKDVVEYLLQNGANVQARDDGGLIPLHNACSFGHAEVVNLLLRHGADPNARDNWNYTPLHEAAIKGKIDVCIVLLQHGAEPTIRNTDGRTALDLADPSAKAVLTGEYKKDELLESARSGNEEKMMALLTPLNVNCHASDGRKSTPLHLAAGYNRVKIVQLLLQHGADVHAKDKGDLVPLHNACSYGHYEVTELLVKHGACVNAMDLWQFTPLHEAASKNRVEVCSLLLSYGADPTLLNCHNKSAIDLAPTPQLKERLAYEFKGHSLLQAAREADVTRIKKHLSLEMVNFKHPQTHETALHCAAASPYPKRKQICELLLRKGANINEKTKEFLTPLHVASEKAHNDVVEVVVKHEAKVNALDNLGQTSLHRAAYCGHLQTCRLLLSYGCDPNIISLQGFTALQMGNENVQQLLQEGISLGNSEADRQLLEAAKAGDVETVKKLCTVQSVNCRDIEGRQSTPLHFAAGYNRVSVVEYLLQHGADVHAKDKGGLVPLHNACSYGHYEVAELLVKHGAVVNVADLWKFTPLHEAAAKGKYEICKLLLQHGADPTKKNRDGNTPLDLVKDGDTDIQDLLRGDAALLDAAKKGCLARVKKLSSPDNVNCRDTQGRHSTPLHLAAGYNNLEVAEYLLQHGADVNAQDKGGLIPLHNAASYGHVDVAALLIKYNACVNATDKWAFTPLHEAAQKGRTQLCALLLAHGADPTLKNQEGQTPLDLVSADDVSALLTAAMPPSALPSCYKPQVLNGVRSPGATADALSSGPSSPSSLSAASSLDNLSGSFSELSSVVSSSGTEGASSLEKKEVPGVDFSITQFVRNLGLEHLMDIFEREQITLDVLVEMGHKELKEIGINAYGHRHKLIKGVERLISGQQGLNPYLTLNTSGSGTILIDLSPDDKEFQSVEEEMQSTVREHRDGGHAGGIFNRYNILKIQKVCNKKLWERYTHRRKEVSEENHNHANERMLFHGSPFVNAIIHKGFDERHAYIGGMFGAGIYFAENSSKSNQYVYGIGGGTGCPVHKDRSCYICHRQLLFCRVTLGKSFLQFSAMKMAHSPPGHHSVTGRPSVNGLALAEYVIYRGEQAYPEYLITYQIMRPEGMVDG

Target: TNKS2 (Homo sapiens (Human), UniProt Q9H2K2)
Assay: Biochemical IC50 TNKS2
Excerpt: XLfit (idbs) was used to determine the IC50-values in inhibition experiments. The following formula was chosen to fit the data points (Langmuir Binding Isotherm): fit=((A+(B*x))+(((C−B)*(1−exp((−1*D)*x)))/D)), res=(y−fit).

Compound	IC50 [nM]
CCOc1ccc(-c2nnc([C@H]3C[C@H](NC(=O)c4cccc5c4nc(C)c(C)[n+]5[O-])C3)n2-c2ccccc2F)nc1 [Example 24, 5-((trans-3-(5-(5-ethoxypyridin-2-yl)-4-(2-fluorophenyl)-4H-1,2,4-triazol-3-yl)cyclobutyl)carbamoyl)-2,3-dimethylquinoxaline 1-oxide]	1.8
CCOc1ccc(-c2nnc([C@H]3C[C@H](NC(=O)c4cc[n+]([O-])c5cc(F)cnc45)C3)n2-c2ccccc2F)nc1 [Example 29, 4-((trans-3-(5-(5-ethoxypyridin-2-yl)-4-(2-fluorophenyl)-4H-1,2,4-triazol-3-yl)cyclobutyl)carbamoyl)-7-fluoro-1,5-naphthyridine 1-oxide]	1.8
